Values of other authors, collected in patent publication US9044388B2, “Dry eye treatment” (Ocular Research of Boston, Inc., priority 2005, dated 2015).

Conditions: result in words; cited from earlier work

Row | Substance | solubility
1 | sorbitan monolaurate [Span 20] | water insoluble
2 | polyoxyethylene (40) stearate [Myrj-52] | water-soluble
